Values of other authors as cited in patent publication US8637702B2, “Derivatives of N-hydroxybenzamide for treating HIV infections” (Italfarmaco S.p.A., priority 2009, dated 2014).

System: Chinese Hamster Ovary (CHO) cells
Conditions: in vitro, Zolinza package leaflet; cited from earlier work

O=C(CCCCCCC(=O)Nc1ccccc1)NO [SAHA]
chromosome aberrations: causes chromosome aberrations
